This note sets out measurements from patent publication US20250099511A1 (published 2025).

The test deals with Bacteroides thetiotaomicron ATCC 29741. In words: MIC by broth microdilution (CLSI), QC strain. Conditions: ATCC29741. In general terms: In broth dilution the organism is exposed to a series of concentrations in liquid medium.

Molecules are shown by their SMILES. Values after ≈ are worked out from the molar mass of the structure shown.

As usually defined, the MIC is the lowest concentration found to suppress growth. A lower MIC goes with inhibition by little substance. Regarding `CCC[C@@H]1C[C@@H](C(=O)N[C@@H]([C@H]2O[C@H](SC)[C@H](O)[C@@H](O)[C@H]2O)[C@H](C)Cl)N(C)C1` [CLI, clindamycin], the MIC turned out to be 4 µg/mL (≈ 9.41 µM).
